US10980890B2, “Compounds comprising self-immolative group” (LegoChem Biosciences, Inc., priority 2014, dated 2021)
Like-named read-outs stand apart in the source and are kept apart here.

Columns and labels:
[1] = system: human breast carcinoma cell line BT-474; test: In vivo anti-tumor efficacy, BT474 breast tumor orthotopic model; set-up: species or system Balb/c-nu female mice
Protocol: Efficacy of a drug depending on single-dose or multi-dose administration was evaluated using an orthotopic model.
(§1) A human breast carcinoma cell line BT-474 was purchased from Korea Cell Line Bank and cultured using RPMI 1640 (10% FBS, 1% penicillin/streptomycin) in an incubator (37° C., 5% CO2) in which a constant temperature and humidity was maintained. As experimental animals, Balb/c-nu female mice (6 weeks old) purchased from Japan SLC were used, and after acclimation period of 1 week, 17b-estradiol pellet (1.72 mg/pellet, Innovative Research of America, Sarasota, Fla.) was subcutaneously administered. After 6 days, BT474 cell (5×10^6 cells in 100 μL) was suitably mixed with 50% PBS/50% phenol red-free Matrigel (Becton Dickinson Bioscience) and injected into the second mammary fat pad, thereby making orthotopic models. A tumor size was measured twice per a week, and a volume was calculated by ½ [length (mm)]×[width (mm)]^2. The mice were grouped so as to have an average tumor volume of 100 mm^3 in each group after 3 weeks from cell injection, and then used in the experiment. Herceptin manufactured by Roche was purchased and used, and various ADCs were produced by the present inventors, and administered once a week or one time to the experimental animals through the lateral tail vein.
It was observed that weight changes and dead animals observed during the entire experimental period were irrelevant to the administered drugs.
Animal groups were the same as those in the multi-dose administration model, a total of 4 BT474 orthotopic mice were used per group, the drugs were administered once at an initiation point in time of the experiment through the tail vein, and only observation was performed during an experiment period of 5 weeks without additional drug administration. […] It was observed that weight changes and dead animals observed during the entire experimental period were irrelevant to the administered drugs.

[2] = In vivo mouse PK profile (total antibody, ELISA); details: ICR male mice, 2.5 mg/kg i.v. single dose
[3] = monkey, in vivo, iv, 3 mg/kg
[4] = Body weight change / tolerability in BT474 breast cancer orthotopic model; format: in vivo, Balb/c-nu female mice; details: 5 mg/kg QW
Protocol: as §1, with “experiment.” for “experiment. Herceptin manufactured by Roche was purchased and used, and various ADCs were produced by the present inventors, and administered once a week or one time to the experimental animals through the lateral tail vein.”

[5] = In vivo rat PK test; details: female rats, 3.0 mg/kg i.v. single dose

For trastuzumab [Herceptin], the “time after single-dose administration from which tumor regrowth was observed” value ([1]; 5 mg/kg once) was 10 days, the “Tumor growth, single-dose administration” value ([1]; 5 mg/kg once, 5 weeks observation (FIG. 12)) was “tumor regrowth phenomenon was observed” and the “Tumor growth, multi-dose administration” value ([1]; 5 mg/kg, once a week, 4 times, tail vein (FIG. 11)) was “tumor growth was partially inhibited”. The “Tumor growth / tumor volume” value ([1]; 5 mg/kg, once a week, three times, tail vein (FIG. 10)) was “tumor growth was partially inhibited”, the C0 [2] was 39.20 µg/mL and the V1 [3] was 36.08 ± 0.62 mL/kg. The “Body Weight Change” value ([4]; Day 4) was 22.1, the “Body Weight Change” value ([4]; Day 7) was 22.1 and the “Body Weight Change” value ([4]; Day 10) was 21.9. The “Body Weight Change” value ([4]; Day 14) was 21.1, the “Body Weight Change” value ([4]; Day 21) was 22.5 and the “Alpha HL” value [5] was 2.16 ± 0.50 days. The V1 [5] was 36.72 ± 1.08 mL/kg.
